Measured values as given in ChEMBL document CHEMBL4049452 (J Med Chem, 2017).

Protein sequences, listed by entry. Tags and fused reporters are not part of them.
UniProt P47871, whole entry: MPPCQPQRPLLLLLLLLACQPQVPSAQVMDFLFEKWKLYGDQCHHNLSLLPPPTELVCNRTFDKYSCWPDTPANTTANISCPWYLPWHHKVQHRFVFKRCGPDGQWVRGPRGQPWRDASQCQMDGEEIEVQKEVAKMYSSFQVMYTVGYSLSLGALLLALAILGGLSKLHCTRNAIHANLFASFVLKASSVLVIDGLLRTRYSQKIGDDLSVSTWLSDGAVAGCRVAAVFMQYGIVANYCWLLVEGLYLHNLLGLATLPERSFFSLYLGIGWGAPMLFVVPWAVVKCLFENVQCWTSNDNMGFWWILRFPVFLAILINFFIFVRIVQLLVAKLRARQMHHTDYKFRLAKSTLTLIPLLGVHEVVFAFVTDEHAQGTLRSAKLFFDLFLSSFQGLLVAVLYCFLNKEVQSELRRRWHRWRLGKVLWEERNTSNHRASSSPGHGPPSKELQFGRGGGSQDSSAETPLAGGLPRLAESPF
UniProt Q61606, whole entry: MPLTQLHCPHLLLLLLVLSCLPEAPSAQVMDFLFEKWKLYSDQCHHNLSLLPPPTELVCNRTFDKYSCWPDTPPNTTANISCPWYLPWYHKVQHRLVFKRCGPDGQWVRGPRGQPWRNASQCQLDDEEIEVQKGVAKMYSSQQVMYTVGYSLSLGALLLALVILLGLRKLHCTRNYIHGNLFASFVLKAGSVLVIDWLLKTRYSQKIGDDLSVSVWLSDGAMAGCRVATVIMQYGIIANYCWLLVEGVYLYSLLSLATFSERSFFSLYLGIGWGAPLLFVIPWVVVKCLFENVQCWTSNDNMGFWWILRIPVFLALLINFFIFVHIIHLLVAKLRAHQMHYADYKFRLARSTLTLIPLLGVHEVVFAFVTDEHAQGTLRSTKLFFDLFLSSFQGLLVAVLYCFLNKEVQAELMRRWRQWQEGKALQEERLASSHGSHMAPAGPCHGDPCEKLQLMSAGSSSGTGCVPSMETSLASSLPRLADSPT
UniProt P43220, whole entry: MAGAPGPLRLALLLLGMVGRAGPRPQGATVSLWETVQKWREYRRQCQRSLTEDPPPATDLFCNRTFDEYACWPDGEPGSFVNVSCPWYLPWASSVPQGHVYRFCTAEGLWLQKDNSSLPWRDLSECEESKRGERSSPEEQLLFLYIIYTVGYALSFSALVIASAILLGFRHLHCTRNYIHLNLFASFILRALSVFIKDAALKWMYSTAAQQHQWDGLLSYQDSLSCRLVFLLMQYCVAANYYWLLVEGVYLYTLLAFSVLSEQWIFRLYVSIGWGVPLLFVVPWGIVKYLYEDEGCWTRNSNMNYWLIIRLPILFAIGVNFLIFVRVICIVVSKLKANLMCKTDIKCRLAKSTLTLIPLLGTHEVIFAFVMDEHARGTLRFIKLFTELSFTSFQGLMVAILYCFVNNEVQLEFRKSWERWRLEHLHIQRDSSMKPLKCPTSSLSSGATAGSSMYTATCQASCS

Key:
[1] = AUC in C57/BL6 mouse at 1 mg/kg, sc by LC-MS/MS analysis; assay type: ADME, organism-based; conditions: in vivo
Outline: (§1)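 Female C57/Bl6 mice given single 1 mg/kg sc dose; animals sacrificed and blood collected at 0.083, 0.25, 1, 2, 4, 8, 16 and 24 h. Plasma analysed by LC-MS/MS after protein precipitation; parameters from mean plasma concentrations by noncompartmental analysis.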

[2] = Tmax in C57/BL6 mouse at 1 mg/kg, sc by LC-MS/MS analysis; assay type: ADME, organism-based; conditions: in vivo; outline: as §1
Glucagon receptor [3] = target: Glucagon receptor (Homo sapiens, UniProt P47871); experiment: Agonist activity at human glucagon receptor expressed in HEK293 cells assessed as cAMP accumulation after 30 mins by HTRF assay; assay type: functional, cell-based
Glucagon receptor [4] = target: Glucagon receptor (Mus musculus, UniProt Q61606); experiment: Agonist activity at mouse glucagon receptor expressed in HEK293 cells assessed as cAMP accumulation after 30 mins by HTRF assay; assay type: functional, cell-based
[5] = target: Glucagon-like peptide 1 receptor (Homo sapiens, UniProt P43220); experiment: Agonist activity at human GLP-1 receptor expressed in HEK293 cells assessed as cAMP accumulation after 30 mins by HTRF assay; assay type: functional, cell-based
[6] = Cmax in C57/BL6 mouse at 1 mg/kg, sc by LC-MS/MS analysis; assay type: ADME, organism-based; parameters: dose 1 mg/kg, route subcutaneous; conditions: in vivo; outline: as §1
[7] = target: T1, Glucagon-like peptide 1 receptor (Mus musculus, UniProt O35659); experiment: Agonist activity at mouse GLP-1 receptor expressed in HEK293 cells assessed as cAMP accumulation after 30 mins by HTRF assay; assay type: functional, cell-based
T1 sequence (O35659 whole entry): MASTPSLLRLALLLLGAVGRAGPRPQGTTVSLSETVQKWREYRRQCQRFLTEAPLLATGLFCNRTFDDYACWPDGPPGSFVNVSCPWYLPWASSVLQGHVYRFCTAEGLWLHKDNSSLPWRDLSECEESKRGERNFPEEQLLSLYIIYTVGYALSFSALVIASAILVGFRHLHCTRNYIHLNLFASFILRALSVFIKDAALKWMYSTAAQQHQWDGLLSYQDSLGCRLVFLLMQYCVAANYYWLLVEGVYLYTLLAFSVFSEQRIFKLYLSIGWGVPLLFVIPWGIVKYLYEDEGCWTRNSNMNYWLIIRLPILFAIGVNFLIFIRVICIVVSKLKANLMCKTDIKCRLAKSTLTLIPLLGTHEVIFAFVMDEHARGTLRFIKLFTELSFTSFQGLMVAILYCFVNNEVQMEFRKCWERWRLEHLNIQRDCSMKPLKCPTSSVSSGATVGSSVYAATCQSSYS

Mus musculus [8] = experiment: Antiobese activity in diet induced obese C57BL/6N mouse assessed as overall weight change at 50 ug/kg, sc twice daily morning at the begining of the light phase and in the evening prior lights off for 33 days (reference value: 0.2 +/- 0.7%); assay type: functional
Mus musculus [9] = experiment: Antiobese activity in diet induced obese C57BL/6N mouse assessed as body fat change at 50 ug/kg, sc twice daily morning at the begining of the light phase and in the evening prior lights off for 33 days by NMR analysis (reference value: 2.5 +/- […]); assay type: functional
Mus musculus [10] = experiment: Antidiabetic activity in leptin receptor deficient diabetic db/db mouse assessed as reduction of HbAlc level in blood at 50 ug/kg, sc twice daily after 32 days; assay type: functional; parameters: scale not given: the % may be the effect or the level left
Outline: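 Female db/db (BKS.Cg-m +/+ Leprdb/J) mice stratified by baseline blood glucose and HbA1c (n = 8/group), lean littermate controls included. Dosed sc twice daily at 50 μg/kg for 32 days versus vehicle. HbA1c measured in tail blood without anesthesia at end of study; repeated-measures one-way ANOVA with Dunnett's test, mean ± SEM.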

SMILES | AUC [1] | Tmax [2] | EC50 (Glucagon receptor [3]) | EC50 (Glucagon receptor [4]) | EC50 [5] | Cmax [6] | EC50 [7] | Activity (Mus musculus [8]) | Activity (Mus musculus [9]) | Activity (Mus musculus [10])
CCCCCCCCCCCCCCCC(=O)N[C@@H](CCC(=O)NCCCC[C@H](NC(=O)[C@H](CCC(N)=O)NC(=O)[C@H](CCCCN)NC(=O)[C@H](CO)NC(=O)[C@H](CC(C)C)NC(=O)[C@H](CC(=O)O)NC(=O)[C@H](CO)NC(=O)[C@@H](NC(=O)[C@H](Cc1ccccc1)NC(=O)[C@@H](NC(=O)CNC(=O)[C@H](CCC(N)=O)NC(=O)[C@@H](CO)NC(=O)[C@@H](N)Cc1c[nH]cn1)[C@@H](C)O)[C@@H](C)O)C(=O)N[C@@H](CC(=O)O)C(=O)N[C@@H](CO)C(=O)N[C@@H](CCCNC(=N)N)C(=O)N[C@@H](CCCNC(=N)N)C(=O)N[C@@H](C)C(=O)N[C@@H](CCC(N)=O)C(=O)N[C@@H](CC(=O)O)C(=O)N[C@@H](Cc1ccccc1)C(=O)N[C@H](C(=O)N[C@@H](CCC(=O)O)C(=O)N[C@@H](Cc1c[nH]c2ccccc12)C(=O)N[C@@H](CC(C)C)C(=O)N[C@@H](CCCCN)C(=O)N[C@@H](CC(N)=O)C(=O)NCC(=O)NCC(=O)N1CCC[C@H]1C(=O)N[C@@H](CO)C(=O)N[C@@H](CO)C(=O)NCC(=O)N[C@@H](C)C(=O)N1CCC[C@H]1C(=O)N1CCC[C@H]1C(=O)N1CCC[C@H]1C(=O)N[C@@H](CO)C(N)=O)[C@@H](C)CC)C(=O)O [listing 1 of 2 here] | 11000 ng·h/mL | 1 h | 0.7 pM | 0.025 nM | 3.9 pM | 1930 ng/mL | 2.3 pM |  |  | 
CCCCCCCCCCCCCCCC(=O)N[C@@H](CCC(=O)NCCCC[C@H](NC(=O)[C@H](CCC(N)=O)NC(=O)[C@H](CCCCN)NC(=O)[C@H](CO)NC(=O)[C@H](CC(C)C)NC(=O)[C@H](CC(=O)O)NC(=O)[C@H](CO)NC(=O)[C@@H](NC(=O)[C@H](Cc1ccccc1)NC(=O)[C@@H](NC(=O)CNC(=O)[C@H](CCC(N)=O)NC(=O)[C@@H](CO)NC(=O)[C@@H](N)Cc1c[nH]cn1)[C@@H](C)O)[C@@H](C)O)C(=O)N[C@@H](CC(=O)O)C(=O)N[C@@H](CO)C(=O)N[C@@H](CCCNC(=N)N)C(=O)N[C@@H](CCCNC(=N)N)C(=O)N[C@@H](C)C(=O)N[C@@H](CCC(N)=O)C(=O)N[C@@H](CC(=O)O)C(=O)N[C@@H](Cc1ccccc1)C(=O)N[C@H](C(=O)N[C@@H](CCC(=O)O)C(=O)N[C@@H](Cc1c[nH]c2ccccc12)C(=O)N[C@@H](CC(C)C)C(=O)N[C@@H](CCCCN)C(=O)N[C@@H](CC(N)=O)C(=O)NCC(=O)NCC(=O)N1CCC[C@H]1C(=O)N[C@@H](CO)C(=O)N[C@@H](CO)C(=O)NCC(=O)N[C@@H](C)C(=O)N1CCC[C@H]1C(=O)N1CCC[C@H]1C(=O)N1CCC[C@H]1C(=O)N[C@@H](CO)C(N)=O)[C@@H](C)CC)C(=O)O [listing 2 of 2 here] |  |  |  |  |  |  |  | -29.1% | -57.3% | 1.5%
